Data: patent publication US10251952B2, “Humanized anti-tau(pS422) antibody brain shuttles and use thereof” (Hoffmann-La Roche Inc., priority 2014, dated 2019)

Tests used:
[1] = tested on: hCMEC/D3 cells; experiment: FACS: simultaneous cell surface and payload binding; format: cell-based
Description: To enable blood brain barrier-shuttle functionality of the bispecific antibodies, they must simultaneously bind to the blood brain barrier receptor on endothelial cells of the blood brain barrier, and to the haptenylated payloads to be shuttled. To evaluate this functionality of the hapten-binding bispecific antibodies as reported herein, simultaneous cell surface and payload binding was addressed by FACS analyses. For these analyses, cell binding of the blood brain barrier-shuttle module (=bispecific antibody) was detected by phytoerythrin-labeled IgG recognizing secondary antibodies. Simultaneous payload binding was detected by application of a haptenylated fluorescent payload (digoxigenylated Cy5; DIG-Cy5). The results of the FACS analysis, using hCMEC/D3 cells as TfR expressing BBB-derived cell line and Dig-Cy5 as fluorescent payload are shown in FIG. 9: both transferrin receptor binding bispecific antibodies bind to hCMEC/D3 as shown by the anti-IgG-PE associated signals. Similarly, both bispecific antibodies also and simultaneously bind Dig-Cy5 as shown by cell-associated Cy5 attributable signals.

[2] = tested on: hCMEC/D3 cells; experiment: transwell cell binding and release of shuttle modules, IgG ELISA; format: cell-based
Description: We used brain endothelial cells (hCMEC/D3) to investigate cell binding and transcytosis of the shuttle modules as reported herein. Previous studies (Crepin et al., 2010; Lesley et al., 1989, WO 2012/075037, WO 2014/033074) reported that valency and affinity of TfR binding antibodies influence efficacy of binding to, transcytosis though, and release from endothelial cells of the blood brain barrier. To investigate cell binding and transcytosis in hCMEC/D3, hCMEC/D3 cells cultured on filter inserts were incubated apically with the bispecific antibody or parent antibody (without hapten-binding scFvs as controls) for 1 hour at 37° C. Cell monolayers were washed at room temperature in serum-free medium apically (400 μl) and basolaterally (1600 μl) three times for 3-5 minutes each. All wash volumes were collected to monitor efficiency of removal of the unbound ligand or antibody. Pre-warmed medium was added to the apical chamber and the filters transferred to a fresh 12 well plate (blocked overnight with PBS containing 1% BSA) containing 1600 μl pre-warmed medium. At this point, cells were lysed in 500 μl RIPA buffer (Sigma, Munich, Germany, #R0278) in order to determine specific uptakes. […] The content of antibody in the samples was quantified using a highly sensitive IgG ELISA.

B1: CD33-Dig: control bispecific antibody recognizing an antigen not present on hCMEC/D3 (CD33) and digoxigenin (antibody)
heavy: EVQLVQSGAEVKKPGSSVKVSCKASGYTITDSNIHWVRQAPGQSLEWIGYIYPYNGGTDYNQKFKNRATLTVDNPTNTAYMELSSLRSEDTAFYYCVNGNPWLAYWGQGTLVTVSSASTKGPSVFPLAPSSKSTSGGTAALGCLVKDYFPEPVTVSWNSGALTSGVHTFPAVLQSSGLYSLSSVVTVPSSSLGTQTYICNVNHKPSNTKVDKKV[letters of human IgG1 Fc omitted]GGGGSGGGGSQVQLVESGGGLVKPGGSLRLSCAASGFTFSDYAMSWIRQAPGKCLEWVSSINIGATYIYYADSVKGRFTISRDNAKNSLYLQMNSLRAEDTAVYYCARPGSPYEYDKAYYSMAYWGQGTTVTVSSGGGGSGGGGSGGGGSDIQMTQSPSSLSASVGDRVTITCRASQDIKNYLNWYQQKPGKAPKLLIYYSSTLLSGVPSRFSGSGSGTDFTLTISSLQPEDFATYYCQQSITLPPTFGCGTKVEIK
light: DIQLTQSPSTLSASVGDRVTITCRASESLDNYGIRFLTWFQQKPGKAPKLLMYAASNQGSGVPSRFSGSGSGTEFTLTISSLQPDDFATYYCQQTKEVPWSFGQGGTKVEVKEIKRTVAAPSVFIFPPSDEQLKSGTASVVCLLNNFYPREAKVQWKVDNALQSGNSQESVTEQDSKDSTYSLSSTLTLSKADYEKHKVYACEVTHQGLSSPVTKSFNRGEC
- cell binding (anti-IgG-PE associated signals) [1]: not generate relevant signals
- simultaneous payload binding (cell-associated Dig-Cy5 signals) [1]: not generate relevant signals
- binding to the cells ([2]; 1 hour at 37 °C apically): do not bind to these cells
- release to apical or basolateral compartments ([2]; over time after washing): not released over time into apical or basolateral compartments
